{"sequences": {"note": "Amino acid sequences for entries named in this document (tags omitted). Chains listed by the source or under a name are the forms on record and can include a tag or linker. Residues count along the entry.", "UniProt P31421, 19-872": "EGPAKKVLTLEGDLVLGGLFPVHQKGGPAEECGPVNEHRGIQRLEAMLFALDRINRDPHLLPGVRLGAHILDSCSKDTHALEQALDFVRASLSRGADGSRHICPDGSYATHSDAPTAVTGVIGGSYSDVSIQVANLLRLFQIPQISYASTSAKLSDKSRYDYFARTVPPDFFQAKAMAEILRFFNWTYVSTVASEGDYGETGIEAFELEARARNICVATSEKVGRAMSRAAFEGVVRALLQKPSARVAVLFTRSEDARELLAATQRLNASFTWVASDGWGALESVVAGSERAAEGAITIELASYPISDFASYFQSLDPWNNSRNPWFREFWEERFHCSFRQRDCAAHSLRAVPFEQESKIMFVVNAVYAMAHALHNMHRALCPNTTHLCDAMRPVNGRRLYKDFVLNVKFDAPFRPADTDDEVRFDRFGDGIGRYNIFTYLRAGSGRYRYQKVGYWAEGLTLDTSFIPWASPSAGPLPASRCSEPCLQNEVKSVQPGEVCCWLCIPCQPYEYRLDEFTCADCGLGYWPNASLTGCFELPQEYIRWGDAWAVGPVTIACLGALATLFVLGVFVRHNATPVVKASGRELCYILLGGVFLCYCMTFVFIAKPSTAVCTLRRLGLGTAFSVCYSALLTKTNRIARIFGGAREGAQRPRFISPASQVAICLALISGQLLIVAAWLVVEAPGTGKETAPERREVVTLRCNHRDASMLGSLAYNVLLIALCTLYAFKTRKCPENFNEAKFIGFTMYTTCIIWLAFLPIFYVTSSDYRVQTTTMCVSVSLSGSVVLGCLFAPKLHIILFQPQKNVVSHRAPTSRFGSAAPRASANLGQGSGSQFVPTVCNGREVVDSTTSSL", "UniProt P31421, with tags, fused parts or gaps with the stated changes": "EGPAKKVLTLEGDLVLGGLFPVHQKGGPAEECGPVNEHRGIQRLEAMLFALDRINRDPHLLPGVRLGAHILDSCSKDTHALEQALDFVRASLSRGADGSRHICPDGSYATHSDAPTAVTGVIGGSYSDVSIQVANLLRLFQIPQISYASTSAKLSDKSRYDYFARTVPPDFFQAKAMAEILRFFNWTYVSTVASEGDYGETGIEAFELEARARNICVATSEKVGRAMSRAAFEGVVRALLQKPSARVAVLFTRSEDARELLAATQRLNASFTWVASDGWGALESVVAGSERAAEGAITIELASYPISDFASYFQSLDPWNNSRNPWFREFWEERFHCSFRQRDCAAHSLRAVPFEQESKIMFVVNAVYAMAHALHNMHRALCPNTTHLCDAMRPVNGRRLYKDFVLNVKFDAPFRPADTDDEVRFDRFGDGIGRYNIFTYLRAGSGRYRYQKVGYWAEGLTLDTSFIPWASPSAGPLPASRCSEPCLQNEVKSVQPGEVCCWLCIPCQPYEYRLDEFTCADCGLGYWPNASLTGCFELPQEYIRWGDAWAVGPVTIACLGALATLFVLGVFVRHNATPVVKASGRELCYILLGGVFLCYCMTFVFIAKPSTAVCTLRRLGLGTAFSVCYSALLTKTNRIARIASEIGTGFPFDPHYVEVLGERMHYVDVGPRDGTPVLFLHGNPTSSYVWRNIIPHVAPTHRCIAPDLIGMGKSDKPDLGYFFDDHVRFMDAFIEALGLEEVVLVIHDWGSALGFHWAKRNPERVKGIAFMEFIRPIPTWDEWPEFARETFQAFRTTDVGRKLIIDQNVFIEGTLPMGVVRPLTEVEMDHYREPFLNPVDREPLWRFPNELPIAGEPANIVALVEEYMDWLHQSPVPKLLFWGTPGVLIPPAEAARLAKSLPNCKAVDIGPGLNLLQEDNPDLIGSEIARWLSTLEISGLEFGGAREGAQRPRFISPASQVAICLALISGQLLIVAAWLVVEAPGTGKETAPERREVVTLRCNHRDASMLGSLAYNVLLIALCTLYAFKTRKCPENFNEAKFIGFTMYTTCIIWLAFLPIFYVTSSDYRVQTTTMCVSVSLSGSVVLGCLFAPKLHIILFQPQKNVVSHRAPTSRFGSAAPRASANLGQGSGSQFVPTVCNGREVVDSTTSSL"}, "source": "paper PMC8102066", "about": "(eLife, 2021)", "key": {"mGluR2 [1]": {"target": "mGluR2 (Rattus norvegicus, UniProt P31421)", "experiment": "Calcium imaging (G protein chimera, GCaMP6f) in HEK 293 T cells", "conditions": "Experiment: Function"}, "mGluR2 [2]": {"target": "mGluR2 (Rattus norvegicus, UniProt P31421, INS660ASEIGTGFPFDPHYVEVLGERMHYVDVGPRDGTPVLFLHGNPTSSYVWRNIIPHVAPTHRCIAPDLIGMGKSDKPDLGYFFDDHVRFMDAFIEALGLEEVVLVIHDWGSALGFHWAKRNPERVKGIAFMEFIRPIPTWDEWPEFARETFQAFRTTDVGRKLIIDQNVFIEGTLPMGVVRPLTEVEMDHYREPFLNPVDREPLWRFPNELPIAGEPANIVALVEEYMDWLHQSPVPKLLFWGTPGVLIPPAEAARLAKSLPNCKAVDIGPGLNLLQEDNPDLIGSEIARWLSTLEISGLE)", "experiment": "Inter-TMD FRET sensor (HaloTag in ICL2), live cells", "conditions": "Experiment: FRET"}}, "note": "“And” between values parts separate entries of the source, which are not always exact repeats. Equal values may be shown once."}
{"substance": "LY 487379", "values": [{"measurement": "% Response", "setting": "mGluR2 [1]", "value": "76.3% and 82.3% and 73.0%"}, {"measurement": "% Response", "setting": "mGluR2 [2]", "value": "32.9% and 25.6% and 42.1%"}]}
